{
  "source": "patent USRE49816E1",
  "about": "“Dipeptides as inhibitors of human immunoproteasomes” (CORNELL UNIVERSITY, priority 2014, dated 2024)",
  "key": {"hu i-20S β5i": {"biological_target": "hu i-20S β5i (Homo sapiens, UniProt P20618+P28062)", "assay": "Dipeptide boronates IC50 vs hu i-20S β5i"}, "hu c-20S β5c": {"biological_target": "hu c-20S β5c (Homo sapiens, UniProt P20618+P28074)", "assay": "Dipeptide boronates IC50 vs hu c-20S β5c", "settings": "read-out: IC50 c-20S β5i"}},
  "data": [
    {"smiles": "CC(=O)N[C@@H](Cc1ccccc1)C(=O)NC(Cc1cccc2ccccc12)B(O)O", "note": "(stereo partly drawn)", "values": [
      {"measurement": "IC50", "setting": "hu i-20S β5i; read-out: IC50 i-20S β5i", "value": 8.4, "unit": "nM"},
      {"measurement": "Ratio", "setting": "hu i-20S β5i; selectivity index hu i-20S β5i over hu c-20S β5c", "value": 17.1},
      {"measurement": "IC50", "setting": "hu c-20S β5c", "value": 143, "unit": "nM"}
    ]}
  ]
}
